BindingDB's records for 18479118, “Exploiting protein fluctuations at the active-site gorge of human cholinesterases: further optimization of the design strategy to develop extremely potent inhibitors” (2008)

By UniProt entry, the sequences of proteins in these tests, tags left out. Residues count along the entry.
UniProt P23795, 31-613 limits assumed: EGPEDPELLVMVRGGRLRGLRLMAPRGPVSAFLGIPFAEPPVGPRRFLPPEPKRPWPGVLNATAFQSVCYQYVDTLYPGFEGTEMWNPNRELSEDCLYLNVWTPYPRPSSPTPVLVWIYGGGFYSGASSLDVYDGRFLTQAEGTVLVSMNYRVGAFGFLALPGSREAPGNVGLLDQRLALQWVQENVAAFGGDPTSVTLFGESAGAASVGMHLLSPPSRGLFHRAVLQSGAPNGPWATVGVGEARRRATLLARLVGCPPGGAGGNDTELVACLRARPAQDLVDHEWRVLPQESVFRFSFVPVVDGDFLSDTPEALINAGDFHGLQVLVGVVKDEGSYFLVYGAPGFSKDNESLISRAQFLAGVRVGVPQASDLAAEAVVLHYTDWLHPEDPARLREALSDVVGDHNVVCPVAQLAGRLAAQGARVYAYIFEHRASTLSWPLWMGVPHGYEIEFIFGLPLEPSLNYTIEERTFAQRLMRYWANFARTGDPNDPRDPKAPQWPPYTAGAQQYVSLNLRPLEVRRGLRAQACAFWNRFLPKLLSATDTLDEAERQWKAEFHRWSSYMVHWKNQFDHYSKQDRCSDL
UniProt P22303, 32-614 limits assumed: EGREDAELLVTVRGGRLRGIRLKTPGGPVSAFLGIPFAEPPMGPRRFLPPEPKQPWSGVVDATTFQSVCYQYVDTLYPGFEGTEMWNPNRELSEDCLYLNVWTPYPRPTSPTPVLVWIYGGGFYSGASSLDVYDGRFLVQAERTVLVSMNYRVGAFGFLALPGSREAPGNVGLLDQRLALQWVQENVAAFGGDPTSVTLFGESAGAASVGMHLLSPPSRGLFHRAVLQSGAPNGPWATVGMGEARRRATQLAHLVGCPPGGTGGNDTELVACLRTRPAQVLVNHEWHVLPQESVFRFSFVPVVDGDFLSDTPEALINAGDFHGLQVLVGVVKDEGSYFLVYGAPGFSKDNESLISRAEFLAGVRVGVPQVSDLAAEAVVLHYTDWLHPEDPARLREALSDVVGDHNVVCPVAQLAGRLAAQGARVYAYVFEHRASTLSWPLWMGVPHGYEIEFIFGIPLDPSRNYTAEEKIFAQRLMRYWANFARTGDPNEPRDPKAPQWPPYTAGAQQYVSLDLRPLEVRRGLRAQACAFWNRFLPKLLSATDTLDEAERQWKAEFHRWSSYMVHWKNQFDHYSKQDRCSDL

Columns and labels:
Acetylcholinesterase [1] = biological target: Acetylcholinesterase (Bos taurus, UniProt P23795); experiment: ASSAY_NAME: ChEMBL_552468 (CHEMBL999085) DESCRIPTION: Inhibition of bovine AChE
Acetylcholinesterase [2] = biological target: Acetylcholinesterase (Homo sapiens, UniProt P22303); experiment: ASSAY_NAME: ChEMBL_555809 (CHEMBL965669) DESCRIPTION: Inhibition of human AChE

Row | Structure (SMILES) | IC50 (Acetylcholinesterase [1]) [mM] | kon (M-1-s-1) (Acetylcholinesterase [2]) [M⁻¹ s⁻¹]
1 | CC[N+](CC)(CC)CCOc1cccc(OCC[N+](CC)(CC)CC)c1OCC[N+](CC)(CC)CC | 8.76 | 
2 | CCOP(=O)(O)N(c1ccc(SC)c(C)c1)C(C)C |  | 0.33
